Publication PMC8782417, “A PDK-1 allosteric agonist neutralizes insulin signaling derangements and beta-amyloid toxicity in neuronal cells and in vitro” (PLoS ONE, 2022)

Molecular target: T1, FAM-labeled Aβ42 peptide (carboxy-fluorescein conjugated to the N' terminus), prepared as ADDL oligomers (carboxy-fluorescein (FAM) on the N-terminus; the labelled peptide was mixed with wild type Aβ42 in a 1:2 molar ratio)
T1 construct: Aβ42, the 42-residue β-amyloid peptide cut from the amyloid precursor protein (APP); Mixed with unlabelled wild type Aβ42 (1:2 molar ratio), then incubated at 4 °C for 24 hrs to oligomerise (ADDLs); also called FAM-Aβ42; FAM tagged-Aβ; source: bought: Anaspec (FAM-Aβ42); Aβ peptides from BioSource
Assay: fluorescence polarisation; in solution; FAM-Aβ42 probe (ADDL oligomers) fixed at 200 nM, recombinant PDK-1 or Akt-1 titrated 0-10 μM (Akt 0 to 12.5 μM) until saturation; 30 min, 25°C; 100 mM NaCl, 20 mM phosphate pH7.4, 2 mM DTT, 0.1% BSA, 2% DMSO; 2 experiments each
Settings: both partners purified

B1: Recombinant human Akt1 (inactive) (enzyme, UniProt P31749 1-480, looked up)
chain: MSDVAIVKEGWLHKRGEYIKTWRPRYFLLKNDGTFIGYKERPQDVDQREAPLNNFSVAQCQLMKTERPRPNTFIIRCLQWTTVIERTFHVETPEEREEWTTAIQTVADGLKKQEEEEMDFRSGSPSDNSGAEEMEVSLAKPKHRVTMNEFEYLKLLGKGTFGKVILVKEKATGRYYAMKILKKEVIVAKDEVAHTLTENRVLQNSRHPFLTALKYSFQTHDRLCFVMEYANGGELFFHLSRERVFSEDRARFYGAEIVSALDYLHSEKNVVYRDLKLENLMLDKDGHIKITDFGLCKEGIKDGATMKTFCGTPEYLAPEVLEDNDYGRAVDWWGLGVVMYEMMCGRLPFYNQDHEKLFELILMEEIRFPRTLGPEAKSLLSGLLKKDPKQRLGGGSEDAKEIMQHRFFAGIVWQHVYEKKLSPPFKPQVTSETDTRYFDEEFTAQMITITPPDQDDSMECVDSERRPHFPQFSYSASGTA
notes: printed size 60 kDa; Commercial protein; also called PKBα; Protein kinase B; source: bought: Amsbio
With B1 the IC50 was ~2000 nM.
